Experimental findings from PubChem BioAssay AID493087 (The Scripps Research Institute Molecular Screening Center, 2011) are described below.

The chains behind the UniProt entries cited, without tags or fusion partners.
UniProt P14735, whole entry: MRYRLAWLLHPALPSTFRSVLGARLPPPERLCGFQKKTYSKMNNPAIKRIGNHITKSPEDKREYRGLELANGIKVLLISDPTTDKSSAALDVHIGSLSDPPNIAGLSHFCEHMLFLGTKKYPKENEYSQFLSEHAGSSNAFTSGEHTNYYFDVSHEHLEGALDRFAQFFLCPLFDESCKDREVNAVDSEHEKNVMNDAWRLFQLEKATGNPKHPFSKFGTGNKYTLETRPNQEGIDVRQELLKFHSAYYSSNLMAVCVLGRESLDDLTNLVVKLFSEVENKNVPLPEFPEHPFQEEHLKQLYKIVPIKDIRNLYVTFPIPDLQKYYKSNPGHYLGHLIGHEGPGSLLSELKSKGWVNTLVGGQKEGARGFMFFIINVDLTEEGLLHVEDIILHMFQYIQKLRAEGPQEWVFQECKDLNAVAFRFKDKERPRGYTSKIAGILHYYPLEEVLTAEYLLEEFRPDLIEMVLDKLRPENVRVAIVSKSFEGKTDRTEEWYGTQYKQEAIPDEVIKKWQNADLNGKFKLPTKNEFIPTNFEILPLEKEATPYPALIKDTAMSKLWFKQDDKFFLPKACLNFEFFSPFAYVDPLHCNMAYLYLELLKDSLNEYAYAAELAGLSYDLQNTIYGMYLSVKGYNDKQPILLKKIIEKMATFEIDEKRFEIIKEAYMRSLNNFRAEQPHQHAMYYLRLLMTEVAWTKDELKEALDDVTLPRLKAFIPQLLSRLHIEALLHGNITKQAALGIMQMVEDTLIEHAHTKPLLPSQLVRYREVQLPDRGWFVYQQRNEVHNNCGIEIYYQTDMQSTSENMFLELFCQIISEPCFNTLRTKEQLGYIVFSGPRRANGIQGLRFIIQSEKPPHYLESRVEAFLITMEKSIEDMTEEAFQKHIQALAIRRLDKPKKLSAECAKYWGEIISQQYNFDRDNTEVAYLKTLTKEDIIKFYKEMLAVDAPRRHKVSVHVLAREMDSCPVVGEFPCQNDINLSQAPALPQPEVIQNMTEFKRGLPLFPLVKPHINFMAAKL

The list shows a part of the results, in another mix than the full data. Some structures show a salt or complex split into parts, the way the source records it. Active and inactive are the calls of the source.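 The calls were made as follows: active = activation above the mean of all tested compounds plus 3 SD, set per screening campaign (cut at about 17% in these data); inactive = the rest.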

The test deals with Insulin-degrading enzyme (Homo sapiens) (UniProt P14735). Put plainly: human IDE activators in live cells, primary screen, fluorescence polarization, HEK cells, FAbeta-B substrate (AID 493087). The note with it: FAbeta-B cleavage, at 5.96 µM, hits give high values, 0% vehicle, 100% cell-free pure enzyme wells.
As for `COc1ccc2c(c1O)-c1c(O)c(OC)cc3c1[C@H](C2)[N+](C)(C)CC3.O=[N+]([O-])c1cc([N+](=O)[O-])c([O-])c([N+](=O)[O-])c1[O-]`, the activation is inactive: 3.16%.

Take `O=C(OC1CN2CCC1CC2)c1ccc([N+](=O)[O-])cc1` (centres undefined): the activation is inactive: 4.17%.

As for `O=C(OCCN1CCN(CCOCc2ccccc2)CC1)C(O)(c1ccccc1)c1ccccc1`, the activation was inactive: 5.02%.

Consider `CP(=O)(Nc1ccccc1F)Oc1ccccc1` (centres undefined), for which the activation was inactive: -0.2%.

As for `CC(C)c1ccc(OP(C)(=O)Nc2ccc(SC(F)(F)F)cc2)cc1` (centres undefined), the activation is inactive: 6.3%.

As to `CP(=O)(Nc1ccccc1)Oc1ccc(F)cc1` (centres undefined), the activation is inactive: -6.06%.

For the compound `O=[N+]([O-])c1cc([N+](=O)[O-])c(OC2CCCCC2O)c([N+](=O)[O-])c1` (centres undefined), the activation was inactive: 2.24%.

Consider `CCCCCOc1ccc(NP(C)(=O)Oc2ccc(Cl)cc2Cl)cc1` (centres undefined), for which the activation is inactive: 3.67%.

For the compound `Cc1c([N+](=O)[O-])cc([N+](=O)[O-])c(Br)c1[N+](=O)[O-]`, the activation was inactive: 0.25%.

Regarding `CCN(CC)CCCOC(=O)C(O)(c1ccccc1)C1CCCCC1` (centres undefined), the activation is inactive: 0.18%.

`CCOC(=O)c1ccc(NP(C)(=O)Oc2ccc(F)cc2)cc1` (centres undefined): the activation was inactive: -3.25%.

Consider `COc1ccc(OP(C)(=O)Nc2ccc(SC(F)(F)F)cc2)cc1` (centres undefined), for which the activation is inactive: 3.1%.

As to `Cc1c(C(c2ccc3c(c2)OCO3)c2c(C)n(C)n(-c3ccccc3)c2=O)c(=O)n(-c2ccccc2)n1C.O=[N+]([O-])c1cc([N+](=O)[O-])c(O)c([N+](=O)[O-])c1`, the activation was inactive: 0.1%.

Turning to `O=[N+]([O-])c1ccc(OP2(=O)COCCO2)cc1` (centres undefined), the activation was inactive: -1.54%.

Turning to `Cc1cc(-c2cccc3ccccc23)c(C)cn1.O=[N+]([O-])c1cc([N+](=O)[O-])c(O)c([N+](=O)[O-])c1`, the activation was inactive: 13.4%.

`O=[N+]([O-])c1cc([N+](=O)[O-])c(NCC2CCS(=O)(=O)C2)c([N+](=O)[O-])c1` (centres undefined): the activation was inactive: 0.08%.

`CN(C)CCOC(=O)C(O)(c1ccccc1)C1CCCCC1` (centres undefined): the activation is inactive: 2.18%.

Regarding `COc1ccc(NP(C)(=O)Oc2ccccc2OC)cc1` (centres undefined), the activation was inactive: -2.9%.

For `COc1ccc(OP(C)(=O)Nc2cccc(Br)c2)cc1` (centres undefined), the activation is inactive: 0.45%.

With `Cc1ccccc1NP(C)(=O)Nc1ccccc1C`, the activation is inactive: 3.07%.

Take `CP(=O)(Nc1ccc2c(c1)OCCO2)Oc1ccccc1` (centres undefined): the activation is inactive: 5.02%.

On to `CCOP(C)(=S)SCC(=O)NC(C)(CC)C(=O)O` (centres undefined), for which the activation was inactive: -0.19%.

In the case of `CP(=O)(Nc1ccc(SC(F)(F)F)cc1)Oc1ccc(F)cc1` (centres undefined), the activation was inactive: 2.12%.

Consider `CN(C)C(=O)c1c([N+](=O)[O-])cc([N+](=O)[O-])cc1[N+](=O)[O-]`, for which the activation was inactive: 1.27%.

Consider `CC(C)(C)c1ccc(OP(C)(=O)O)cc1`, for which the activation was inactive: -1.52%.

For `COc1ccccc1OP(C)(=O)Nc1ccccc1Br` (centres undefined), the activation is inactive: -2.49%.

As to `CP(=O)(Nc1ccc(Cl)cc1)Oc1ccc(F)cc1` (centres undefined), the activation was inactive: -3.53%.

With `COc1ccccc1OP(C)(=O)Nc1c(C)n(C)n(-c2ccccc2)c1=O` (centres undefined), the activation was inactive: 0%.

In the case of `O=C(OCCCN1CCCC1)C(O)(c1ccccc1)C1CCCCC1` (centres undefined), the activation was inactive: 10.8%.

Regarding `CP(=O)(Oc1ccccc1)N1CCOC1=O` (centres undefined), the activation is inactive: 0.84%.

For the compound `CCc1ccc(OP(C)(=O)Nc2cccnc2)cc1` (centres undefined), the activation is inactive: 2.89%.

`CCN(CC)CC(O)COC(=O)C(O)(c1ccccc1)C1CCCCC1` (centres undefined): the activation was inactive: 5.07%.

Regarding `COc1ccc(OP(C)(=O)Nc2ccc(Br)cc2)cc1` (centres undefined), the activation was inactive: -6.66%.

With `CCOC(=O)c1ccc(NP(C)(=O)Oc2ccc(Cl)cc2)cc1` (centres undefined), the activation was inactive: -0.75%.

`CP(=O)(OC12CC3CC(CC(C3)C1)C2)OC12CC3CC(CC(C3)C1)C2`: the activation is inactive: 3.1%.

As to `CP(=O)(OCCOc1ccccc1)OCCOc1ccccc1`, the activation was inactive: 7.29%.

As for `CP(=O)(Nc1ccc(Cl)cc1Cl)Oc1ccccc1` (centres undefined), the activation is inactive: 0.77%.

Take `CCCCCCCCCCCCCCCC1C[N+](C)(C)CCOP(C)(=O)O1` (centres undefined): the activation is inactive: 7.07%.

Regarding `COc1ccccc1OP(C)(=O)Nc1ccc(C)c(C)c1` (centres undefined), the activation is inactive: -2.36%.

Consider `COc1ccc(OP(C)(=O)Nc2ccccc2Br)cc1` (centres undefined), for which the activation is inactive: 0.86%.

`O=C1C(O)=C([N+](=O)[O-])C(=O)C(O)=C1[N+](=O)[O-]`: the activation is inactive: 4.61%.

Take `Cc1cc(C)cc(OP(C)(=O)Nc2cccc(C(F)(F)F)c2)c1` (centres undefined): the activation was inactive: 5.64%.

For `CP(=O)(Nc1ccccn1)Oc1ccccc1` (centres undefined), the activation is inactive: 2.4%.

With `COc1ccccc1OP(C)(=O)Nc1ccc(C)cc1C` (centres undefined), the activation was inactive: 5.87%.

As for `CCc1ccc(OP(C)(=O)O)cc1`, the activation is inactive: 4.91%.

For the compound `O=[N+]([O-])c1cc([N+](=O)[O-])c(Nc2ccccn2)c([N+](=O)[O-])c1`, the activation was inactive: 3.24%.

As to `Cc1c(NP(C)(=O)Oc2ccc(C(C)C)cc2)c(=O)n(-c2ccccc2)n1C` (centres undefined), the activation is inactive: -0.94%.

Regarding `COc1ccc(OP(C)(=O)Nc2ccccn2)cc1` (centres undefined), the activation was inactive: -2.61%.

In the case of `CN(C)CCOC(=O)C(O)(c1ccccc1)C1CCCC1` (centres undefined), the activation was inactive: 6.44%.

Regarding `COc1ccccc1OP(C)(=O)Nc1ccc(Br)cc1` (centres undefined), the activation was inactive: 3.16%.

As to `CCN(CC)CCCOC(=O)C(O)(c1ccccc1)c1ccccc1`, the activation is inactive: 2.73%.

As for `Cc1cc(C)cc(OP(C)(N)=O)c1` (centres undefined), the activation was inactive: -2.24%.

Take `COc1ccccc1OP(C)(=O)Nc1cc(Cl)ccc1C` (centres undefined): the activation is inactive: -4.49%.

`COc1ccc(OP(C)(=O)Nc2cccc(F)c2)cc1` (centres undefined): the activation was inactive: -4.08%.

On to `COc1ccccc1OP(C)(=O)Nc1ccc(C)cc1` (centres undefined), for which the activation was inactive: 5.57%.

As for `Cc1ccc(NP(C)(=O)Oc2ccccc2)c(C)c1` (centres undefined), the activation is inactive: 0.75%.

Consider `CCOC(=O)c1ccc(NP(C)(=O)Oc2ccccc2)cc1` (centres undefined), for which the activation is inactive: 5.61%.

As for `O=[N+]([O-])c1ccc2c(c1)C=Nc1ccccc1O2`, the activation was inactive: 3.29%.

Regarding `CC(C)(C)c1ccc(OP(C)(=O)Nc2ccc(SC(F)(F)F)cc2)cc1` (centres undefined), the activation is inactive: -5.04%.

Regarding `Cc1cccc(C)c1OP(C)(N)=O` (centres undefined), the activation was inactive: -3.5%.

In the case of `O=[N+]([O-])c1cc([N+](=O)[O-])c(Nc2cccnc2)c([N+](=O)[O-])c1`, the activation was inactive: -1.17%.

`CP(=O)(Nc1ccccc1Br)Oc1ccccc1` (centres undefined): the activation was inactive: -2.94%.

On to `CP(=S)(Nn1cnnc1)Oc1ccccc1` (centres undefined), for which the activation was inactive: 3.31%.

As for `CP(=O)(Nc1ccccn1)Oc1ccc(Cl)cc1` (centres undefined), the activation was inactive: -3.57%.

For the compound `CCOC(=O)c1ccc(NP(C)(=O)Oc2ccc(OC)cc2)cc1` (centres undefined), the activation is inactive: -1.97%.

With `CCOP(C)(=S)SCC(=O)NC(C)C(=O)O` (centres undefined), the activation was inactive: 0.53%.

Turning to `CCc1ccc(OP(C)(=O)N2CCN(c3ccc([N+](=O)[O-])cc3)CC2)cc1` (centres undefined), the activation was inactive: -4.05%.

Regarding `CP(=O)(NC(=O)Nc1ccccc1)Oc1ccccc1` (centres undefined), the activation was inactive: 4.97%.

Regarding `Cc1cc(C)cc(OP(C)(=O)Nc2ccc(SC(F)(F)F)cc2)c1` (centres undefined), the activation was inactive: 6%.

For the compound `Cc1cccc(C)c1OP(C)(=O)Nc1ccc(SC(F)(F)F)cc1` (centres undefined), the activation was inactive: 2.38%.

Take `CP(=O)(Oc1ccccc1)OC(c1ccccc1)C(F)(F)F` (centres undefined): the activation is inactive: 2.42%.

In the case of `Cc1nc2ccc3ccccc3c2s1.O=[N+]([O-])c1cc([N+](=O)[O-])c(O)c([N+](=O)[O-])c1`, the activation is inactive: -7.31%.

Consider `O=[N+]([O-])c1cc([N+](=O)[O-])c(-c2cnn(-c3ccccc3)c2)c([N+](=O)[O-])c1`, for which the activation was inactive: 1.72%.

In the case of `O=[N+]([O-])c1cc([N+](=O)[O-])c(-n2nnc3ccccc32)c([N+](=O)[O-])c1`, the activation is inactive: 5.12%.

`CP(=O)(Nc1ccc(SC(F)(F)F)cc1)Oc1ccccc1` (centres undefined): the activation was inactive: 2.07%.

Turning to `CCCOc1ccc(NP(C)(=O)Oc2ccc(Cl)cc2)cc1` (centres undefined), the activation was inactive: 0.31%.

`CN1CCCCC1COC(=O)C1(O)c2ccccc2CCc2ccccc21` (centres undefined): the activation was inactive: 4.03%.

With `COc1ccccc1OP(C)(=O)Nc1c(C)cccc1C` (centres undefined), the activation is inactive: -3.3%.

As for `O=[N+]([O-])c1cc([N+](=O)[O-])c(Nc2nnnn2CCO)c([N+](=O)[O-])c1`, the activation is inactive: 2.78%.

On to `CC1=C2N=C(C=C3N=C(C(C)=C4[N-][C@@](C)([C@@H]5N=C1[C@](C)(CCC(=O)NC[C@@H](C)OP(=O)([O-])O[C@H]1[C@@H](O)[C@@H](n6cnc7cc(C)c(C)cc76)O[C@@H]1CO)[C@H]5CC(N)=O)[C@@](C)(CC(N)=O)[C@@H]4CCC(N)=O)[C@@](C)(CC(N)=O)[C@@H]3CCC(N)=O)C(C)(C)[C@@H]2CCC(N)=O.[C-]#N.[Co+3]`, for which the activation is inactive: 6.23%.

With `CCOC(=O)C(CC)C1=NC(C)(C)Cc2ccccc21.O=[N+]([O-])c1cc([N+](=O)[O-])c(O)c([N+](=O)[O-])c1` (centres undefined), the activation is inactive: -1.51%.

Regarding `CC1=NCCc2c1[nH]c1ccccc21.O=[N+]([O-])c1cc([N+](=O)[O-])c(O)c([N+](=O)[O-])c1`, the activation is inactive: 2.2%.

On to `O=C(O)c1cccc(Nc2c([N+](=O)[O-])cc([N+](=O)[O-])cc2[N+](=O)[O-])c1`, for which the activation was inactive: 1.18%.

Regarding `Cc1ccc(C)c(NP(C)(=O)Oc2ccccc2)c1` (centres undefined), the activation is inactive: 2.55%.

Turning to `CP(=O)(Nc1cccc(Br)c1)Oc1ccccc1` (centres undefined), the activation is inactive: 5.33%.

As to `Cc1cc(C)cc(OP(C)(=O)Nc2ccccn2)c1` (centres undefined), the activation is inactive: 1.06%.

Consider `CCOC(=O)c1ccc(NP(C)(=O)Oc2cc(C)cc(C)c2)cc1` (centres undefined), for which the activation is inactive: 2.75%.

In the case of `Cc1cc(C)cc(OP(C)(=O)Nc2ccc(C)cc2C)c1` (centres undefined), the activation was inactive: 0.9%.

Regarding `COc1ccccc1OP(C)(=O)Nc1cccc(Br)c1` (centres undefined), the activation was inactive: 2.59%.
